Laboratory results as given in ChEMBL document CHEMBL2424574, “Structure-activity relationships and pharmacophore model of a noncompetitive pyrazoline containing class of GluN2C/GluN2D selective antagonists” (J Med Chem, 2013).

Key:
[1] = species on record: Rattus norvegicus; test: Selectivity ratio of IC50 for recombinant rat GluN2B receptor to IC50 for recombinant rat GluN2D receptor
How it was run: (§1)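 Rat GluN1 co-expressed with GluN2A, GluN2B or GluN2D in Xenopus oocytes. Two-electrode voltage clamp at −40 mV in 90 NaCl, 1 KCl, 0.5 BaCl2, 0.005 EDTA, 10 HEPES (mM), pH 7.4, 23 °C; final DMSO 0.1–0.05%. IC50s came from Hill fits to averaged composite concentration-response curves (5–24 oocytes, 2–4 frogs). Ratio is GluN2A or GluN2B IC50 over GluN2D IC50.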

[2] = species on record: Rattus norvegicus; test: Selectivity ratio of IC50 for recombinant rat GluN2A receptor to IC50 for recombinant rat GluN2D receptor; how it was run: as §1

SMILES | Ratio IC50 [1] | Ratio IC50 [2]
O=C(O)CCC(=O)N1N=C(c2c(-c3ccc(Br)cc3)c3ccccc3[nH]c2=O)CC1c1ccc(Cl)cc1 (stereo not drawn) | 79 | 34
O=C(O)CCC(=O)N1N=C(c2c(-c3ccccc3)c3cc(Cl)ccc3[nH]c2=O)CC1c1ccc(Br)cc1 (stereo not drawn) | 7 | –
